Data taken from ChEMBL document CHEMBL1143427, “Interactions of ceftobiprole with beta-lactamases from molecular classes A to D” (Antimicrob Agents Chemother, 2007).

Experiments:
[1] = test system: Nc1nc(/C(=N/O)C(=O)N[C@@H]2C(=O)N3C(C(=O)O)=C(/C=C4\CCN([C@@H]5CCNC5)C4=O)CS[C@H]23)ns1; test: (§1) Ratio of Kcat to Km of Pseudomonas aeruginosa VIM2 assessed as drug hydrolysis by spectrophotometry
[2] = test system: CO/N=C(\C(=O)N[C@@H]1C(=O)N2C(C(=O)[O-])=C(C[N+]3(C)CCCC3)CS[C@H]12)c1csc(N)n1; test: as §1
[3] = test system: CO/N=C(\C(=O)N[C@@H]1C(=O)N2C(C(=O)[O-])=C(C[N+]3(C)CCCC3)CS[C@H]12)c1csc(N)n1; test: Activity of Pseudomonas aeruginosa VIM2 assessed as drug hydrolysis by spectrophotometry

For “Beta-lactamase VIM-2 (Pseudomonas aeruginosa) (from UniProt Q9K2N0)”, which kcat/Km [1] is on record?
Its kcat/Km is 330000 M⁻¹ s⁻¹.

And the kcat/Km [2]?
The kcat/Km was 3500 M⁻¹ s⁻¹.

What about the Km [3] of the same substance?
The Km was 110 µM.

What about the kcat [3] of the same substance?
The kcat was 0.38 s⁻¹.
